Values of other authors as cited in patent US8969323B2, “Priming solutions for cardiopulmonary bypass” (XVIVO Perfusion AB, priority 2010, dated 2015).

Settings: Griffel et al., 1992; cited from earlier work

25% albumin solution: hyperoncotic 25% albumin solution, cited from Griffel et al., 1992
increase of the volume in the vasculature relative to the given volume: almost five times the given volume
